Data reported in patent US20160280736A1, “CYCLIC PEPTIDE COMPOUND, AND PREPARATION METHOD, PHARMACEUTICAL COMPOSITION AND USE THEREOF” (HANGZHOU GUANYU BIO-MEDICAL CO., LTD., priority 2013, published 2016).

By UniProt entry, the sequences of proteins in these tests, tags left out.
UniProt Q8WUI4, whole entry: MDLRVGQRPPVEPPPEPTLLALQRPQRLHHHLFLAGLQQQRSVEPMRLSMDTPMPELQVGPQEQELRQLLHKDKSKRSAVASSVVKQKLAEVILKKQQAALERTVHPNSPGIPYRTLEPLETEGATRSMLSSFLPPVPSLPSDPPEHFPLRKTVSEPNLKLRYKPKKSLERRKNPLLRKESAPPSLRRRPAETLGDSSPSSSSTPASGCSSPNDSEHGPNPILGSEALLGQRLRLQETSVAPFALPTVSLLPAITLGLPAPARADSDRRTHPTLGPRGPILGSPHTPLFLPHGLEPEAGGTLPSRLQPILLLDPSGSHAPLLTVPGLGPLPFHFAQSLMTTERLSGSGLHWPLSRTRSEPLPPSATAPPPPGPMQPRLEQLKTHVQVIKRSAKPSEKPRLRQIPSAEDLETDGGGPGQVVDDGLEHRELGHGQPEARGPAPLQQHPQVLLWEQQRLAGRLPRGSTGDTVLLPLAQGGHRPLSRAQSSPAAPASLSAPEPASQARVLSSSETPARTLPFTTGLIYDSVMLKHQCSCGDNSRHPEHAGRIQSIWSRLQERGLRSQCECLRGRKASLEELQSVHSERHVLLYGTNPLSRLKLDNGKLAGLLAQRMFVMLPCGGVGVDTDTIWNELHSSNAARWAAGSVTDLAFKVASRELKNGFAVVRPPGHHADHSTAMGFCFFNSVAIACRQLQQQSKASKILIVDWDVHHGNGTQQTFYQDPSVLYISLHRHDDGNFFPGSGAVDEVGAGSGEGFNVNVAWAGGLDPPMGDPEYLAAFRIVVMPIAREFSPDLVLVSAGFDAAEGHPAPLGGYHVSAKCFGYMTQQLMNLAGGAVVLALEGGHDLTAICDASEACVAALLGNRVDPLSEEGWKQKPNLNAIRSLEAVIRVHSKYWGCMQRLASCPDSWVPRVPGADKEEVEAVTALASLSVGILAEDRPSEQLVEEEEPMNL

Molecular target: HDAC7 (Homo sapiens, UniProt Q8WUI4)
Experiment: HDAC biochemical activity measurement (fluorescent substrate deacetylation)
Settings: HDAC7 enzyme, 37°, 30 minutes

IC50 (μM) HDAC7	SMILES
no activity	C/C=C1\NC(=O)c2cccc(n2)CNC(=O)C[C@@H](/C=C/CCSC(C)=O)OC(=O)[C@H](CC)NC1=O
no activity	C/C=C1\NC(=O)c2ccc(SC)c(n2)CNC(=O)C[C@@H](/C=C/CCSC(=O)CCCCCCC)OC(=O)[C@H](CC)NC1=O
no activity	C/C=C1\NC(=O)c2cccc(n2)CNC(=O)C[C@@H](/C=C/CCSC(=O)CCCCCCC)OC(=O)[C@H](CC(C)C)NC1=O
no activity	C/C=C1\NC(=O)c2cc(SC)cc(n2)CNC(=O)C[C@@H](/C=C/CCSC=O)OC(=O)[C@H](C(C)C)NC1=O
no activity	C/C=C1\NC(=O)c2cc(F)cc(n2)CNC(=O)C[C@@H](/C=C/CCSC(C)=O)OC(=O)[C@H](C(C)C)NC1=O [Compound 49]
no activity	C/C=C1\NC(=O)c2nc(ccc2SC)CNC(=O)C[C@@H](/C=C/CCSC(=O)CCCCC)OC(=O)[C@H](C(C)C)NC1=O
no activity	C/C=C1\NC(=O)c2cc(SCCC)cc(n2)CNC(=O)C[C@@H](/C=C/CCSC(=O)CCCCCCC)OC(=O)[C@H](CC)NC1=O
no activity	C/C=C1\NC(=O)c2cccc(n2)CNC(=O)C[C@@H](/C=C/CCSC(=O)CCCCCCC)OC(=O)[C@H](CSCC)NC1=O
no activity	C/C=C1\NC(=O)c2cc(F)cc(n2)CCNC(=O)C[C@@H](/C=C/CCSC(C)=O)OC(=O)[C@H](C(C)C)NC1=O
no activity	C/C=C1\NC(=O)c2nc(ccc2SC)CNC(=O)C[C@@H](/C=C/CCSC=O)OC(=O)[C@H](C(C)C)NC1=O
no activity	C/C=C1\NC(=O)c2cccc(n2)CNC(=O)C[C@@H](/C=C/CCS)OC(=O)[C@@H](C)NC1=O
no activity	C/C=C1\NC(=O)c2ccc(SC)c(n2)CNC(=O)C[C@@H](/C=C/CCSC(C)=O)OC(=O)[C@H](CC)NC1=O
no activity	C/C=C1\NC(=O)c2nc(ccc2SC)CNC(=O)C[C@@H](/C=C/CCSC(=O)CCCCCCC)OC(=O)[C@H](C(C)C)NC1=O
no activity	C/C=C1\NC(=O)c2nc(ccc2SCCC)CNC(=O)C[C@@H](/C=C/CCSC(=O)CCCCCCC)OC(=O)[C@H](CC)NC1=O
no activity	C/C=C1\NC(=O)c2cccc(n2)CNC(=O)C[C@@H](/C=C/CCSC=O)OC(=O)[C@H](C(C)C)NC1=O
no activity	C/C=C1\NC(=O)c2ccc(SC)c(n2)CNC(=O)C[C@@H](/C=C/CCSC(=O)CCCCCCC)OC(=O)[C@H](Cc2ccccc2)NC1=O
no activity	C/C=C1\NC(=O)c2nc(ccc2SC)CNC(=O)C[C@@H](/C=C/CCSC(=O)CCCCCCC)OC(=O)[C@H](CC)NC1=O
no activity	C/C=C1\NC(=O)c2cc(SC)cc(n2)CNC(=O)C[C@@H](/C=C/CCSC(C)=O)OC(=O)[C@H](CCCCN)NC1=O
no activity	C/C=C1\NC(=O)c2cc(SC)cc(n2)CNC(=O)C[C@@H](/C=C/CCSC(C)=O)OC(=O)[C@H](CC)NC1=O
no activity	C/C=C1\NC(=O)c2cc(SC)cc(n2)CNC(=O)C[C@@H](/C=C/CCSC(=O)CCCCCC)OC(=O)[C@H](C(C)C)NC1=O
no activity	C/C=C1\NC(=O)c2cccc(n2)CCNC(=O)C[C@@H](/C=C/CCS)OC(=O)[C@H](C(C)C)NC1=O
no activity	C/C=C1\NC(=O)c2cccc(n2)CNC(=O)C[C@@H](/C=C/CCSC(=O)CCCCCCC)OC(=O)[C@H](CCSC)NC1=O
no activity	C/C=C1\NC(=O)c2nc(ccc2F)CCNC(=O)C[C@@H](/C=C/CCSC(C)=O)OC(=O)[C@H](C(C)C)NC1=O
no activity	C=C1NC(=O)c2cc(SC)cc(n2)CNC(=O)C[C@@H](/C=C/CCSC(C)=O)OC(=O)[C@H](C(C)C)NC1=O
no activity	C/C=C1\NC(=O)c2nc(ccc2SC)CNC(=O)C[C@@H](/C=C/CCS)OC(=O)[C@H](C)NC1=O
no activity	C/C=C1\NC(=O)c2cccc(n2)CNC(=O)C[C@@H](/C=C/CCSC(=O)CCCCC)OC(=O)[C@H](C(C)C)NC1=O
